# This is a selection; strong and weak results do not stand in their true shares. Active and inactive are the calls of the source.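 Rule for the calls: active = activation above the mean across all tested compounds plus 3 SD, cutoff set per campaign (cut at about 5.5% in these data); inactive = the rest.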
# Assay: Hsp70 transcriptional activators, primary screen, cell-based, HeLa, Hsp70 promoter luciferase, luminescence, 10 µM (AID 1203);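 note: 100% = MG132 at 30 µM as the positive control and 0% = DMSO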
# Details: HeLa Hsp70 promoter luciferase reporter, at 10 µM, hits give high values, scaled: vehicle 0, proteasome-inhibitor control 100%
row,SMILES,activation
1,CC1=NCCc2c1[nH]c1ccccc21.O=[N+]([O-])c1cc([N+](=O)[O-])c(O)c([N+](=O)[O-])c1,inactive: -0.24%
2,Cc1cc(C)cc(OP(C)(=O)Nc2ccc(C)cc2C)c1 (stereo not given),inactive: -0.29%
3,CCOC(=O)c1ccc(NP(C)(=O)Oc2cc(C)cc(C)c2)cc1 (stereo not given),inactive: -0.19%
4,CP(=O)(Nc1cccc(Br)c1)Oc1ccccc1 (stereo not given),inactive: -0.04%
5,Cc1cc(C)cc(OP(C)(=O)Nc2ccccn2)c1 (stereo not given),inactive: -0.37%
6,Cc1ccc(C)c(NP(C)(=O)Oc2ccccc2)c1 (stereo not given),inactive: -0.28%
7,O=[N+]([O-])c1cc([N+](=O)[O-])c(-n2nnc3ccccc32)c([N+](=O)[O-])c1,inactive: -0.2%
8,Cc1nc2ccc3ccccc3c2s1.O=[N+]([O-])c1cc([N+](=O)[O-])c(O)c([N+](=O)[O-])c1,inactive: -0.26%
9,CP(=O)(Nc1ccc(SC(F)(F)F)cc1)Oc1ccccc1 (stereo not given),inactive: -0.35%
10,CCCOc1ccc(NP(C)(=O)Oc2ccc(Cl)cc2)cc1 (stereo not given),inactive: -0.05%
11,COc1ccccc1OP(C)(=O)Nc1c(C)cccc1C (stereo not given),inactive: -0.41%
12,CN1CCCCC1COC(=O)C1(O)c2ccccc2CCc2ccccc21 (stereo not given),inactive: -0.29%
13,COc1ccccc1OP(C)(=O)Nc1ccccc1 (stereo not given),inactive: -0.42%
14,CP(=O)(Nc1ccccc1Br)Oc1ccccc1 (stereo not given),inactive: -0.36%
15,CP(=S)(Nn1cnnc1)Oc1ccccc1 (stereo not given),inactive: 0.11%
16,Cc1cc(C)cc(OP(C)(=O)Nc2ccc(SC(F)(F)F)cc2)c1 (stereo not given),inactive: -0.33%
17,CP(=O)(NC(=O)Nc1ccccc1)Oc1ccccc1 (stereo not given),inactive: 0.03%
18,CP(=O)(Oc1ccccc1)OC(c1ccccc1)C(F)(F)F (stereo not given),inactive: -0.07%
19,Cc1cccc(C)c1OP(C)(=O)Nc1ccc(SC(F)(F)F)cc1 (stereo not given),inactive: -0.35%
20,CP(=O)(Nc1ccccn1)Oc1ccc(Cl)cc1 (stereo not given),inactive: -0.32%
21,CCOP(C)(=S)SCC(=O)NC(C)C(=O)O (stereo not given),inactive: -0.02%
22,CCOC(=O)c1ccc(NP(C)(=O)Oc2ccc(OC)cc2)cc1 (stereo not given),inactive: -0.39%
23,CCN(CC)CCCOC(=O)C(O)(c1ccccc1)c1ccccc1,inactive: -0.23%
24,Cc1cccc(C)c1OP(C)(N)=O (stereo not given),inactive: -0.06%

row,SMILES,activation
1,CC(C)(C)c1ccc(OP(C)(=O)Nc2ccc(SC(F)(F)F)cc2)cc1 (stereo not given),inactive: -0.44%
2,O=[N+]([O-])c1ccc2c(c1)C=Nc1ccccc1O2,inactive: 0.04%
3,COc1ccc(OP(C)(=O)Nc2cccc(F)c2)cc1 (stereo not given),inactive: -0.14%
4,COc1ccccc1OP(C)(=O)Nc1cc(Cl)ccc1C (stereo not given),inactive: 0.08%
5,Cc1cc(C)cc(OP(C)(N)=O)c1 (stereo not given),inactive: 0.13%
6,CCOC(=O)c1ccc(NP(C)(=O)Oc2ccccc2)cc1 (stereo not given),inactive: -0.02%
7,Cc1ccc(NP(C)(=O)Oc2ccccc2)c(C)c1 (stereo not given),inactive: -0.39%
8,COc1ccccc1OP(C)(=O)Nc1ccc(C)cc1 (stereo not given),inactive: 0.24%
9,COc1ccc(OP(C)(=O)Nc2ccccc2Br)cc1 (stereo not given),inactive: -0.31%
10,COc1ccccc1OP(C)(=O)Nc1ccc(C)c(C)c1 (stereo not given),inactive: 0.1%
11,Cc1cc(C)cc(OP(C)(=O)Nc2cccc(C(F)(F)F)c2)c1 (stereo not given),inactive: -0.19%
12,CP(=O)(OCCOc1ccccc1)OCCOc1ccccc1,inactive: 0.1%
13,CP(=O)(Nc1ccc(Cl)cc1Cl)Oc1ccccc1 (stereo not given),inactive: -0.22%
14,Cc1nc2ccc3ccccc3c2o1.O=[N+]([O-])c1cc([N+](=O)[O-])c(O)c([N+](=O)[O-])c1,inactive: 0.37%
15,CN(C)CCOC(=O)C(O)(c1ccccc1)C1CCCC1 (stereo not given),inactive: -0.17%
16,COc1ccc(OP(C)(=O)Nc2ccccn2)cc1 (stereo not given),inactive: 0.02%
17,CCc1ccc(OP(C)(=O)O)cc1,inactive: -0.09%
18,COc1ccccc1OP(C)(=O)Nc1ccc(C)cc1C (stereo not given),inactive: -0.01%
19,CP(=O)(Nc1ccccn1)Oc1ccccc1 (stereo not given),inactive: 0%
20,O=[N+]([O-])c1cc([N+](=O)[O-])c(Nc2ccccn2)c([N+](=O)[O-])c1,inactive: -0.56%
21,Cc1c(NP(C)(=O)Oc2ccc(C(C)C)cc2)c(=O)n(-c2ccccc2)n1C (stereo not given),inactive: -0.45%
22,CCc1ccc(OP(C)(=O)Nc2cccnc2)cc1 (stereo not given),inactive: 0.06%
23,CP(=O)(Oc1ccccc1)N1CCOC1=O (stereo not given),inactive: -0.25%
24,COc1ccccc1OP(C)(=O)Nc1c(C)n(C)n(-c2ccccc2)c1=O (stereo not given),inactive: -0.64%

row,SMILES,activation
1,COc1ccc(OP(C)(=O)Nc2ccc(Br)cc2)cc1 (stereo not given),inactive: -0.32%
2,CCN(CC)CC(O)COC(=O)C(O)(c1ccccc1)C1CCCCC1 (stereo not given),inactive: -0.04%
3,CN(C)C(=O)c1c([N+](=O)[O-])cc([N+](=O)[O-])cc1[N+](=O)[O-],inactive: -0.09%
4,CP(=O)(Nc1ccc(Cl)cc1)Oc1ccc(F)cc1 (stereo not given),inactive: 0.11%
5,CC(C)(C)c1ccc(OP(C)(=O)O)cc1,inactive: 0.29%
6,COc1ccccc1OP(C)(=O)Nc1ccccc1Br (stereo not given),inactive: 0.36%
7,CP(=O)(OC12CC3CC(CC(C3)C1)C2)OC12CC3CC(CC(C3)C1)C2,inactive: -0.23%
8,CCOC(=O)c1ccc(NP(C)(=O)Oc2ccc(Cl)cc2)cc1 (stereo not given),inactive: -0.21%
9,COc1ccc(NP(C)(=O)Oc2ccccc2OC)cc1 (stereo not given),inactive: 0.02%
10,CN(C)CCOC(=O)C(O)(c1ccccc1)C1CCCCC1 (stereo not given),inactive: -0.52%
11,COc1ccc(OP(C)(=O)Nc2cccc(Br)c2)cc1 (stereo not given),inactive: -0.08%
12,O=[N+]([O-])c1cc([N+](=O)[O-])c(NCC2CCS(=O)(=O)C2)c([N+](=O)[O-])c1 (stereo not given),inactive: 0.07%
13,CCOP(C)(=S)SCC(=O)NC(C)(CC)C(=O)O (stereo not given),inactive: -0.45%
14,Cc1ccccc1NP(C)(=O)Nc1ccccc1C,inactive: 0.04%
15,CP(=O)(Nc1ccc2c(c1)OCCO2)Oc1ccccc1 (stereo not given),inactive: -0.23%
16,CC(C)c1ccc(OP(C)(=O)Nc2ccc(SC(F)(F)F)cc2)cc1 (stereo not given),inactive: -0.25%
17,CP(=O)(Nc1ccccc1F)Oc1ccccc1 (stereo not given),inactive: -0.01%
18,O=C(OCCN1CCN(CCOCc2ccccc2)CC1)C(O)(c1ccccc1)c1ccccc1,inactive: -0.25%
19,COc1ccc(OP(C)(=O)Nc2ccc(SC(F)(F)F)cc2)cc1 (stereo not given),inactive: -0.17%
20,CCOC(=O)c1ccc(NP(C)(=O)Oc2ccc(F)cc2)cc1 (stereo not given),inactive: -0.59%
21,CP(=O)(Nc1ccccc1)Oc1ccc(F)cc1 (stereo not given),inactive: 0.01%
22,CCN(CC)CCCOC(=O)C(O)(c1ccccc1)C1CCCCC1 (stereo not given),inactive: -0.08%

# — PubChem BioAssay AID1203 (The Scripps Research Institute Molecular Screening Center, 2008)
